Data taken from US8431565B2 (priority 2007, dated 2013).

By UniProt entry, the sequences of proteins in these tests, tags left out.
UniProt P34972, whole entry: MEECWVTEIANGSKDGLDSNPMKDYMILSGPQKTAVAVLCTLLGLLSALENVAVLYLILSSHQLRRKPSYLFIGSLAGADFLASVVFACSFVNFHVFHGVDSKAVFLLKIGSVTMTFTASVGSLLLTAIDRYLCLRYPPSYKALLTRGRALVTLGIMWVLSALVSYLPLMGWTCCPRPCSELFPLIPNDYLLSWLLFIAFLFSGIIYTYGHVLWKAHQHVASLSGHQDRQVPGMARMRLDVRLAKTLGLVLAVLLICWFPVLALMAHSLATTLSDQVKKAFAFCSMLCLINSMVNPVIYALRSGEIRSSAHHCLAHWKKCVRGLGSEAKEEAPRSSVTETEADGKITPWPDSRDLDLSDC

Molecular target: human CB2 receptor (hCB2) (Homo sapiens, UniProt P34972)
Assay: cell-based

Row | SMILES | EC50 [µM]
1 | CNC(=O)[C@@H](NC(=O)c1nc(-c2cc(F)c(F)cc2F)n2c1CN(c1cccc(Cl)n1)CCC2)C(C)(C)C [Compound 717, (S)-8-(6-chloropyridin-2-yl)-N-(3,3-dimethyl-1-(methylamino)-1-oxobutan-2-yl)-3-(2,4,5-trifluorophenyl)-6,7,8,9-tetrahydro-5H-imidazo[1,5-a][1,4]diazepine-1-carboxamide] | > 10
2 | CNC(=O)[C@@H](NC(=O)c1nc(-c2cc(F)c(F)cc2F)n2c1CN(c1cncc(Cl)n1)CCC2)C(C)(C)C [Compound 718, (S)-8-(6-chloropyrazin-2-yl)-N-(3,3-dimethyl-1-(methylamino)-1-oxobutan-2-yl)-3-(2,4,5-trifluorophenyl)-6,7,8,9-tetrahydro-5H-imidazo[1,5-a][1,4]diazepine-1-carboxamide] | > 10
3 | CNC(=O)[C@@H](NC(=O)c1nc(C2CCN(C(=O)C(C)C)CC2)n2c1CN(C)CCC2)C(C)(C)C [Compound 728, (S)-N-(3,3-dimethyl-1-(methylamino)-1-oxobutan-2-yl)-3-(1-isobutyrylpiperidin-4-yl)-8-methyl-6,7,8,9-tetrahydro-5H-imidazo[1,5-a][1,4]diazepine-1-carboxamide] | > 10
4 | CN1CCCn2c(-c3cc(Cl)ccc3F)nc(C(=O)N[C@H](C(=O)N[C@H]3CN4CCC3CC4)C(C)(C)C)c2C1 [Compound 744, 3-(5-chloro-2-fluorophenyl)-N-((S)-3,3-dimethyl-1-oxo-1-((R)-quinuclidin-3-ylamino)butan-2-yl)-8-methyl-6,7,8,9-tetrahydro-5H-imidazo[1,5-a][1,4]diazepine-1-carboxamide] | > 10
5 | CNC(=O)[C@@H]1CCN(C(=O)c2nc(-c3cc(F)c(F)cc3F)n3c2CN(C)CCC3)C1 [Compound 758, (R)-N-methyl-1-(8-methyl-3-(2,4,5-trifluorophenyl)-6,7,8,9-tetrahydro-5H-imidazo[1,5-a][1,4]diazepine-1-carbonyl)pyrrolidine-3-carboxamide] | > 10
6 | CN1CCCn2c(-c3cc(Cl)ccc3F)nc(C(=O)N[C@H](CN)C(C)(C)C)c2C1 [Compound 768, (S)-N-(1-amino-3,3-dimethylbutan-2-yl)-3-(5-chloro-2-fluorophenyl)-8-methyl-6,7,8,9-tetrahydro-5H-imidazol[1,5-a][1,4]diazepine-1-carboxamide] | > 10
7 | CNC(=O)[C@@H](NC(=O)c1nc(C2CCN(S(=O)(=O)C(C)C)CC2)n2c1CN(C)CCC2)C(C)(C)C [Compound 775, (S)-N-(3,3-dimethyl-1-(methylamino)-1-oxobutan-2-yl)-3-(1-(isopropylsulfonyl)piperidin-4-yl)-8-methyl-6,7,8,9-tetrahydro-5H-imidazo[1,5-a][1,4]diazepine-1-carboxamide] | > 10
8 | CNC(=O)[C@@H](NC(=O)c1nc(-c2cnn(S(=O)(=O)c3ccccc3)c2)n2c1CN(C)CCC2)C(C)(C)C [Compound 776, (S)-N-(3,3-dimethyl-1-(methylamino)-1-oxobutan-2-yl)-8-methyl-3-(1-(phenylsulfonyl)-1H-pyrazol-4-yl)-6,7,8,9-tetrahydro-5H-imidazo[1,5-a][1,4]diazepine-1-carboxamide] | > 10
9 | CN1CCCn2c(-c3cc(F)c(F)cc3F)nc(C(=O)N3CCC4(CCNC4=O)CC3)c2C1 [Compound 787, 8-(8-methyl-3-(2,4,5-trifluorophenyl)-6,7,8,9-tetrahydro-5H-imidazo[1,5-a][1,4]diazepine-1-carbonyl)-2,8-diazaspiro[4.5]decan-1-one] | > 10
10 | CN1CCCn2c(-c3cc(F)c(F)cc3F)nc(C(=O)N3CCC4(CCN(C)C4=O)CC3)c2C1 [Compound 788, 2-methyl-8-(8-methyl-3-(2,4,5-trifluorophenyl)-6,7,8,9-tetrahydro-5H-imidazo[1,5-a][1,4]diazepine-1-carbonyl)-2,8-diazaspiro[4.5]decan-1-one] | > 10
11 | CN1CCCn2c(-c3cc(F)c(F)cc3F)nc(C(=O)N3CCCCC3CN3CCOCC3)c2C1 (centres unmarked) [Compound 789, (8-methyl-3-(2,4,5-trifluorophenyl)-6,7,8,9-tetrahydro-5H-imidazo[1,5-a][1,4]diazepin-1-yl)(2-(morpholinomethyl)piperidin-1-yl)methanone] | > 10
12 | CNC(=O)[C@@H]1CCN(C(=O)c2nc(-c3cc(Cl)c(F)cc3F)n3c2CN(C)CCC3)C1 [Compound 808, (R)-1-(3-(5-chloro-2,4-difluorophenyl)-8-methyl-6,7,8,9-tetrahydro-5H-imidazo[1,5-a][1,4]diazepine-1-carbonyl)-N-methylpyrrolidine-3-carboxamide] | > 10
13 | CNC(=O)[C@H]1CCN(C(=O)c2nc(-c3cc(Cl)c(F)cc3F)n3c2CN(C)CCC3)C1 [Compound 809, (S)-1-(3-(5-chloro-2,4-difluorophenyl)-8-methyl-6,7,8,9-tetrahydro-5H-imidazo[1,5-a][1,4]diazepine-1-carbonyl)-N-methylpyrrolidine-3-carboxamide] | > 10
14 | CN1CCCn2c(-c3cc(C(F)(F)F)ccc3F)nc(C(=O)N[C@H](C(=O)NCCF)C(C)(C)C)c2C1 [Compound 810, (S)-3-(2-fluoro-5-(trifluoromethyl)phenyl)-N-(1-(2-fluoroethylamino)-3,3-dimethyl-1-oxobutan-2-yl)-8-methyl-6,7,8,9-tetrahydro-5H-imidazo[1,5-a][1,4]diazepine-1-carboxamide] | > 10
15 | CN1CCCn2c(-c3cc(Cl)c(F)cc3F)nc(C(=O)N3CCC(F)(F)C3)c2C1 [Compound 824, (3-(5-chloro-2,4-difluorophenyl)-8-methyl-6,7,8,9-tetrahydro-5H-imidazo[1,5-a][1,4]diazepin-1-yl)(3,3-difluoropyrrolidin-1-yl)methanone] | > 10
16 | COC(=O)C1CN(C(=O)c2nc(-c3cc(Cl)c(F)cc3F)n3c2CN(C)CCC3)CCC1=O (centres unmarked) [Compound 826, methyl 1-(3-(5-chloro-2,4-difluorophenyl)-8-methyl-6,7,8,9-tetrabydro-5H-imidazo[1,5-a][1,4]diazepine-1-carbonyl)-4-oxopiperidine-3-carboxylate] | > 10
17 | COC[C@@H](NC(=O)c1nc(-c2cc(F)c(F)cc2F)n2c1C[N+](C)(C)CCC2)C(C)(C)C [Compound 827, (S)-N-(1-methoxy-3,3-dimethylbutan-2-yl)-8-methyl-3-(2,4,5-trifluorophenyl)-6,7,8,9-tetrahydro-5H-imidazo[1,5-a][1,4]diazepine-1-carboxamide methiodide] | > 10
18 | CC1CN(C(=O)c2nc(-c3cc(F)c(F)cc3F)n3c2CN(C)CCC3)CC(C)O1 (centres unmarked) [Compound 854, (2,6-dimethylmorpholino)(8-methyl-3-(2,4,5-trifluorophenyl)-6,7,8,9-tetrahydro-5H-imidazo[1,5-a][1,4]diazepin-1-yl)methanone] | > 10
19 | CN1CCCn2c(-c3cc(F)c(F)cc3F)nc(C(=O)N3CC(O)C3)c2C1 [Compound 856, (3-hydroxyazetidin-1-yl)(8-methyl-3-(2,4,5-trifluorophenyl)-6,7,8,9-tetrahydro-5H-imidazo[1,5-a][1,4]diazepin-1-yl)methanone] | > 10
20 | CN1CCCn2c(-c3cc(F)c(F)cc3F)nc(C(=O)N3CCC(O)C3)c2C1 (centres unmarked) [Compound 857, (3-hydroxypyrrolidin-1-yl)(8-methyl-3-(2,4,5-trifluorophenyl)-6,7,8,9-tetrahydro-5H-imidazo[1,5-a][1,4]diazepin-1-yl)methanone] | > 10
21 | CN1CCCn2c(-c3cc(F)c(F)cc3F)nc(C(=O)N3CCOCC3)c2C1 [Compound 859, (8-methyl-3-(2,4,5-trifluorophenyl)-6,7,8,9-tetrahydro-5H-imidazo[1,5-a][1,4]diazepin-1-yl)(morpholino)methanone] | > 10
22 | CN1CCN(CC(C)(C)NC(=O)c2nc(-c3cc(Cl)c(F)cc3F)n3c2CN(C)CCC3)CC1 [Compound 879, 3-(5-chloro-2,4-difluorophenyl)-8-methyl-N-(2-methyl-1-(4-methylpiperazin-1-yl)propan-2-yl)-6,7,8,9-tetrahydro-5H-imidazo[1,5-a][1,4]diazepine-1-carboxamide] | > 10
23 | CC1CCN(CC(C)(C)NC(=O)c2nc(-c3cc(Cl)c(F)cc3F)n3c2CN(C)CCC3)CC1 [Compound 880, 3-(5-chloro-2,4-difluorophenyl)-8-methyl-N-(2-methyl-1-(4-methylpiperidin-1-yl)propan-2-yl)-6,7,8,9-tetrahydro-5H-imidazo[1,5-a][1,4]diazepine-1-carboxamide] | > 10
24 | CCNC(=O)[C@@H](NC(=O)c1nc(-c2cc(Cl)c(F)cc2F)n2c1CN(CC)CCC2)C(C)(C)C [Compound 890, (S)-3-(5-chloro-2,4-difluorophenyl)-8-ethyl-N-(1-(ethylamino)-3,3-dimethyl-1-oxobutan-2-yl)-6,7,8,9-tetrahydro-5H-imidazo[1,5-a][1,4]diazepine-1-carboxamide] | > 10
25 | CNC(=O)[C@@H](NC(=O)c1nc(-c2cc(F)c(F)cc2F)n2c1CN(C1CC1)CCC2)C(C)(C)C [Compound 902, (S)-8-cyclopropyl-N-(3,3-dimethyl-1-(methylamino)-1-oxobutan-2-yl)-3-(2,4,5-trifluorophenyl)-6,7,8,9-tetrahydro-5H-imidazo[1,5-a][1,4]diazepine-1-carboxamide] | > 10
26 | CN1CCCn2c(-c3cc(Cl)c(F)cc3F)nc(C(=O)N3CC[C@H](O)C3)c2C1 [Compound 910, (S)-(3-(5-chloro-2,4-difluorophenyl)-8-methyl-6,7,8,9-tetrahydro-5H-imidazo[1,5-a][1,4]diazepin-1-yl)(3-hydroxypyrrolidin-1-yl)methanone] | > 10
